From PubChem BioAssay AID652010 (The Scripps Research Institute Molecular Screening Center, 2013) come the findings set out here.

This is a selection; strong and weak results do not stand in their true shares. Active and inactive are the calls of the source.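 The calls were made as follows: active = inhibition above the mean over all tested compounds plus 3 SD (cut at about 3.6% in these data); inactive = the rest.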

The test in a line: DAX1 (NR0B1) inhibitors on StAR promoter, primary screen, cell-based, luminescence, SF-1 (NR5A1), full-length DAX-1 (AID 652010).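 Also: 0% = DAX-1 cells with DMSO and 100% = cells lacking DAX-1 with DMSO; higher inhibition means more luminescence from relief of DAX-1 repression.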 Particulars: HEK293T StAR-luciferase reporter, SF-1/DAX-1 repression relief; at 6.8 µM; active compounds read high. A general note: A reporter such as luciferase makes a cellular process visible.
On to `Cc1ccc(OP(=O)(Nc2ccccn2)Oc2ccc(C)cc2)cc1`, for which the inhibition is inactive: -0.57%. As for `CC(=O)NC(SC(=S)N(CC(C)C)CC(C)C)C(Cl)(Cl)Cl` (stereo unspecified), the inhibition was inactive: 0.44%. To `COC(=O)c1cc2c(s1)N=C(c1ccccc1)N(C)P2(=O)N1CCOCC1` (stereo unspecified) belongs inactive: -0.2%. Take `CCC(=O)N1C2C3N(C(=O)CC)C1C1N(C(=O)CC)C(C(N1C(=O)CC)N3C(=O)CC)N2C(=O)CC`: the inhibition is inactive: -0.21%. In the case of `O=C(OC1CN2CCC1CC2)c1ccccc1` (stereo unspecified), the inhibition is inactive: -0.57%.

Regarding `CN(C)C(=O)Oc1noc2ccccc12`, the inhibition is inactive: -0.11%. To `O=c1c2cc([N+](=O)[O-])ccc2[nH]c2c([N+](=O)[O-])cc([N+](=O)[O-])cc12` belongs inactive: -1.18%. For the compound `Cc1ccccc1OP(=O)(Nc1ccccn1)Oc1ccccc1C`, the inhibition was inactive: -0.26%. For `CC(NC(=O)COC(=O)C(O)(c1ccccc1)c1ccccc1)c1ccccc1` (stereo unspecified), the inhibition was inactive: -0.43%. With `CCNC(=S)/N=C(\N)N[N+](=O)[O-]` the figure was inactive: 0%; with `O=C(NC1CCS(=O)(=O)C1)NP(=S)(Oc1ccccc1)Oc1ccccc1` (stereo unspecified), inactive: -0.03%. To `Cc1ccc(NP(=O)(Oc2cccc(C)c2)Oc2cccc(C)c2)nc1` belongs inactive: 0.01%; to `c1ccc(-c2nn[nH]n2)c(-c2nn[nH]n2)c1`, inactive: -0.43%; to `O=P1(N(CCCl)CCCl)OCCC2CCCCN21` (stereo unspecified), inactive: -0.35%. Regarding `COC(=O)C1(C)COP(=O)(NCc2ccccc2)OC1` (stereo unspecified), the inhibition was inactive: -0.26%. `N#C/C(=C\c1ccc(N(CCBr)CCBr)cc1)C(N)=O`: the inhibition was inactive: -0.4%. To `CC(=O)c1ccc(N2CC2c2ccncc2)cc1` (stereo unspecified) belongs inactive: 0.09%; to `C[C@@H]1C=CCP(=O)(Oc2ccccc2)O1` (stereo partly specified), inactive: 0.68%.

`C[C@H]1OP(=O)(Oc2ccccc2)C[C@@H]2O[C@@H]21` (stereo partly specified): the inhibition is inactive: 0.16%.

For `Cc1ccccc1CN(C)C(=O)COC(=O)C(O)(c1ccccc1)c1ccccc1`, the inhibition was inactive: -0.75%. In the case of `CC(=O)Nc1ccc(Oc2c([N+](=O)[O-])cc([N+](=O)[O-])cc2[N+](=O)[O-])cc1`, the inhibition was inactive: 0.8%. With `CC(=O)Nc1ccc([As](=O)(O)O)c(O)c1` the figure was inactive: 0.19%; with `CCOc1ccc(C2=NCC(CBr)S2)cc1` (stereo unspecified), inactive: 0.18%. To `O=P1(Nc2nc3ccc(Cl)cc3s2)COc2ccccc2O1` (stereo unspecified) belongs inactive: 0.78%; to `CCc1cc(O)c([N+](=O)[O-])c(C)c1[N+](=O)[O-]`, inactive: -0.31%. With `CC(C)(C)C(=O)NC(Sc1ccccc1)C(Cl)(Cl)Cl` (stereo unspecified), the inhibition is inactive: 0.19%. Turning to `CC(C)C(=O)NC(Sc1ccccc1)C(Cl)(Cl)Cl` (stereo unspecified), the inhibition was inactive: 0.14%. With `O=P(Nc1nccs1)(c1ccccc1)c1ccccc1` the figure was inactive: -0.6%; with `c1nnnn1CCn1cnnn1`, inactive: -0.17%; with `O=[N+]([O-])c1ncn(CCn2cnc([N+](=O)[O-])n2)n1`, inactive: -0.23%. Consider `CC(=O)NC(SC(=S)N(C)C)C(Cl)(Cl)Cl` (stereo unspecified), for which the inhibition was inactive: -0.53%.

Turning to `O=[As](O)(c1ccccc1)c1ccc(O)cc1`, the inhibition was inactive: 0.65%.

Regarding `Nc1ccc([As](=O)(O)c2ccc([N+](=O)[O-])cc2)cc1`, the inhibition was inactive: -0.05%. `C(Cc1nn[nH]n1)Cc1nn[nH]n1`: the inhibition is inactive: 0.53%.

On to `C/C(N)=N\P(=O)(OCc1ccccc1)OCc1ccccc1`, for which the inhibition is inactive: 0.26%. Take `O=C(OC1CN2CCC1CC2)c1cccc(Cl)c1` (stereo unspecified): the inhibition is inactive: 0.18%. To `Nc1ccc(CCCCOc2ccccc2)cc1` belongs inactive: 0.01%; to `COc1ccc(N)c([N+](=O)[O-])c1[N+](=O)[O-]`, inactive: -0.68%. To `O=P(Nc1ccccn1)(c1ccc(Br)cc1)c1ccc(Br)cc1` belongs inactive: 0.1%; to `CN(C)C1(CNC(=O)c2ccc(Cl)c(S(N)(=O)=O)c2)CCCCC1`, inactive: -0.1%. With `C[C@H]1OP(=O)(Oc2ccccc2)[C@H](O)[C@H](O)[C@H]1N=[N+]=[N-]` (stereo partly specified) the figure was inactive: 0.17%; with `O=P(Nc1nc2ccccc2s1)(c1ccccc1)c1ccccc1`, inactive: -0.1%; with `CC(C)(C)C(=O)NC(Sc1ccncn1)C(Cl)(Cl)Cl` (stereo unspecified), inactive: 0.29%. As to `O=[N+]([O-])c1ncn(CCn2ncnc2[N+](=O)[O-])n1`, the inhibition was inactive: -0.19%. Regarding `O=[N+]([O-])c1cccc(NC2=NCC(CBr)S2)c1` (stereo unspecified), the inhibition is inactive: -0.01%. To `COC(=O)C1(C)COP(=O)(Nc2ccccc2)OC1` (stereo unspecified) belongs inactive: -0.75%. For `O=C(O)CNc1ccc([As](=O)(O)O)cc1`, the inhibition was inactive: -0.17%.

Take `O=P1(N(CCCl)CCCl)OCCCS1` (stereo unspecified): the inhibition is inactive: -0.1%. With `O=C(Nc1cc([As](=O)(O)O)ccc1O)c1ccccc1` the figure was inactive: 0.07%. With `C[N+]1=C2C=CC=CC=C2SC12C([N+](=O)[O-])=CC([N+](=O)[O-])=C[C-]2[N+](=O)[O-]` (stereo unspecified) the figure was inactive: -2.05%; with `Nc1ccc([As](=O)(O)c2ccc(N)cc2)cc1`, inactive: -0.11%. In the case of `CCN(/C(=N/P(=O)(N1CCOCC1)N1CCOCC1)N1CCOCC1)c1ccc(OC)cc1`, the inhibition is inactive: -0.39%. In the case of `CN(C)C(=O)OCCc1n(C)cc[n+]1C`, the inhibition is inactive: 0.71%. To `CC(C)=N/N=C(\N)N[N+](=O)[O-]` belongs inactive: -0.09%; to `CC(C)c1nc(Nc2ccccc2)n(P(=O)(N(C)C)N(C)C)n1`, inactive: -0.12%. To `c1cc(-c2nn[nH]n2)ccc1-c1nn[nH]n1` belongs inactive: -0.69%. To `CC1CCN(C(=O)Oc2c(Cl)cc(Cl)c3cccnc23)CC1` belongs inactive: -0.85%; to `COc1ccc(C2=NCC(CBr)S2)cc1` (stereo unspecified), inactive: -0.12%.

For the compound `O=[N+]([O-])c1cccc2n[nH]nc12`, the inhibition was inactive: -0.38%. With `CC(=O)N1C2C3N(C(C)=O)C1C1N(C(C)=O)C(C(N1C(C)=O)N3C(C)=O)N2C(C)=O` the figure was inactive: 0.21%; with `CCc1nc2c(n1)c1c(non1O)c1c2no[n+]1[O-]`, inactive: -1.81%; with `O=[N+]([O-])c1cc([N+](=O)[O-])c(CCNc2ccccc2)c([N+](=O)[O-])c1`, inactive: -2.48%. To `Cc1ccc(NP(=O)(Oc2ccccc2)Oc2ccccc2)nc1` belongs inactive: -0.31%. `CC(C)CC(=O)NC(Sc1ccc(Cl)cc1)C(Cl)(Cl)Cl` (stereo unspecified): the inhibition was inactive: 1.49%. To `Nc1cc(N)c2nonc2c1[N+](=O)[O-]` belongs inactive: -0.61%. To `O=C(NC(Sc1ccncn1)C(Cl)(Cl)Cl)c1ccccc1` (stereo unspecified) belongs inactive: -0.4%. Turning to `Oc1ccccc1CNc1ccccn1`, the inhibition was inactive: -0.05%. Take `NC(=O)c1cc([N+](=O)[O-])cc([N+](=O)[O-])c1N`: the inhibition was inactive: -0.25%. To `Cc1ccc(N/C(=N/P(=O)(N2CCOCC2)N2CCOCC2)N2CCOCC2)cc1` belongs inactive: -0.33%; to `CN(C(=O)Cc1ccc(Cl)c(Cl)c1)[C@H]1CCCC[C@H]1N1CCCC1`, inactive: 0.45%. Regarding `Cc1ccc(OP(=O)(Nc2nccs2)Oc2ccc(C)cc2)cc1`, the inhibition was inactive: 0.06%. `COc1ccccc1OP(=O)(Nc1ccc(C)cn1)Oc1ccccc1OC`: the inhibition was inactive: 0.49%. To `Clc1ccc(Cl)c(NC2=NCC(CBr)S2)c1` (stereo unspecified) belongs inactive: 0.22%.

With `CN1CCCC(OC(=O)C(c2ccccc2)c2ccccc2)C1` (stereo unspecified), the inhibition was inactive: -0.03%. On to `CCN(N=Nc1nonc1N)c1nonc1N`, for which the inhibition was inactive: -0.21%. With `CN(C(=O)Cc1ccccc1)C1CC[C@@]2(CCCO2)C[C@@H]1N1CCCC1` (stereo partly specified) the figure was inactive: 0.19%; with `Nc1cccc2ccc([As](=O)(O)O)cc12`, inactive: 0.33%. With `CCCC1OP(N)(=O)OCC1CC` (stereo unspecified), the inhibition is inactive: 0.26%. With `O=C(O)c1ccccc1[As](=O)(O)O` the figure was inactive: 0.39%; with `CC(=O)Nc1ccc([As](=O)(O)O)cc1`, inactive: -0.25%; with `CN(C)P(=O)(N(C)C)n1c(Nc2ccccc2)nnc1-c1ccccc1`, inactive: 1.3%.

`O=P(Nc1nc2ccc(Cl)cc2s1)(c1ccccc1)c1ccccc1`: the inhibition was inactive: 0.03%. With `Cc1ccc(NP(=O)(Oc2ccccc2F)Oc2ccccc2F)nc1` the figure was inactive: 0.18%. Turning to `CN(C(=O)Cc1ccc(Cl)c(Cl)c1)[C@H]1CCCC[C@@H]1N1CCCC1`, the inhibition is inactive: -0.44%. To `CCOP(=O)(Nc1ccccc1)OCC` belongs inactive: -0.04%; to `Cc1cc(SC(NC(=O)c2ccc(F)cc2)C(Cl)(Cl)Cl)ncn1` (stereo unspecified), inactive: 0.24%; to `CCn1c(=O)n(C2CCN(CC3CCCCCCC3)C[C@H]2CO)c2ccccc21` (stereo partly specified), inactive: 0.67%.

For `CC(C)c1ccc(OP(=O)(Nc2ccccn2)Oc2ccccc2F)cc1` (stereo unspecified), the inhibition was inactive: 0.44%. As for `COC(=O)C1(C)COP(=O)(N2CCCCCC2)OC1` (stereo unspecified), the inhibition is inactive: -0.19%.

`ClCCSc1nnc(-c2cccnc2)o1`: the inhibition is inactive: 0.74%. To `O=C(OC1CN2CCC1CC2)c1cccc2[nH]cnc12` (stereo unspecified) belongs inactive: 1.04%.

Regarding `CCN(CC)C(=S)SC(NC=O)C(Cl)(Cl)Cl` (stereo unspecified), the inhibition is inactive: 0.72%.

Take `CC(C)NC(=O)NP(=O)(Oc1ccccc1)Oc1ccccc1`: the inhibition is inactive: -0.12%.

In the case of `COc1cc(C(=O)NCC2(N3CCOCC3)CCCCC2)ccc1OCC(C)C`, the inhibition was inactive: 2.21%. For `O=[N+]([O-])c1ccc(-c2cc([N+](=O)[O-])c(O)c([N+](=O)[O-])c2)cc1`, the inhibition is inactive: -0.62%. With `O=[As](O)(c1ccc(O)cc1)c1ccccc1O` the figure was inactive: -0.14%.

Consider `C[As](=O)(O)c1cccc(C(=O)O)c1`, for which the inhibition was inactive: -0.03%.

With `Cc1ccc2nc3c(c(C)c2c1)CC(C(Cl)Cl)S3` (stereo unspecified), the inhibition was inactive: 0.7%. Take `[N-]=[N+]=NC1CCCCC1NC(=O)c1cc([N+](=O)[O-])cc([N+](=O)[O-])c1` (stereo unspecified): the inhibition was inactive: 0.81%.

Turning to `Cc1ccc(OP(=O)(Nc2ccc([N+](=O)[O-])cn2)Oc2ccc(C)cc2)cc1`, the inhibition is inactive: 1.22%.

Take `COc1ccc(N/C(=N/P(=O)(N2CCOCC2)N2CCOCC2)N2CCOCC2)cc1`: the inhibition is inactive: -0.17%.

One may read the inhibition as the drop in the measured response relative to a control, in per cent.
